{"sequences": {"note": "Chains of the proteins cited; added tags and fusions are not shown. Residues count along the entry.", "UniProt J3SEZ3, 24-851 limits assumed": "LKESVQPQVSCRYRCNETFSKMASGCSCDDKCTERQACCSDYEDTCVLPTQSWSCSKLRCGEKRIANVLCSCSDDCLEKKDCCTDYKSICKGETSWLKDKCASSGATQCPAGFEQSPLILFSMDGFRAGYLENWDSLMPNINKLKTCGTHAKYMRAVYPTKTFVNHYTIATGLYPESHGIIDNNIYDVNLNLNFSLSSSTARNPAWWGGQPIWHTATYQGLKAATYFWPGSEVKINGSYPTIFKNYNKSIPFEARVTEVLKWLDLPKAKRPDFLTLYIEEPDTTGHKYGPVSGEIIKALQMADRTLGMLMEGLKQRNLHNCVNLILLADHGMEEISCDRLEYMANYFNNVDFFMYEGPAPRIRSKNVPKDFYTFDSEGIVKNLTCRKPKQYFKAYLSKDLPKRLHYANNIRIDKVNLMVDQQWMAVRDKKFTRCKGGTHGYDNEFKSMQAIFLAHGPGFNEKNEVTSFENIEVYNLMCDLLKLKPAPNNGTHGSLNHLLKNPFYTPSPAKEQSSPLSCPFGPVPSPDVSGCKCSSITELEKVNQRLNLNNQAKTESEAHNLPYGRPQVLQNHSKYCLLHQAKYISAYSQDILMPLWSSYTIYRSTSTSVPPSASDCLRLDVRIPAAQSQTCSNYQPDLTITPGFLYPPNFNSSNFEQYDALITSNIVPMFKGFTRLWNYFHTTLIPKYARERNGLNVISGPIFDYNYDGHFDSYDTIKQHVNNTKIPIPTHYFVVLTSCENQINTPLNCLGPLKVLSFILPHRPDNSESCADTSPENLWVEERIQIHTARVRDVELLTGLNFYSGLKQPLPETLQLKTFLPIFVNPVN"}, "source": "patent US10377789B2", "about": "“Oligonucleotide and artificial nucleoside having guanidine bridge” (OSAKA UNIVERSITY, priority 2012, dated 2019)", "molecular_target": "3′-exonuclease (Crotalus admanteus venom phosphodiesterase: CAVP) (Crotalus adamanteus, UniProt J3SEZ3)"}
{"substance": "5′-d(TTTTTTTTT)-3′ [Compound 13]", "values": [{"measurement": "percentage of unreacted oligonucleotides", "value": "≥ 50", "unit": "%"}]}
